Measurements: ChEMBL document CHEMBL1142711 (J Med Chem, 2005)

The chains behind the UniProt entries cited, without tags or fusion partners.
UniProt P33535, whole entry: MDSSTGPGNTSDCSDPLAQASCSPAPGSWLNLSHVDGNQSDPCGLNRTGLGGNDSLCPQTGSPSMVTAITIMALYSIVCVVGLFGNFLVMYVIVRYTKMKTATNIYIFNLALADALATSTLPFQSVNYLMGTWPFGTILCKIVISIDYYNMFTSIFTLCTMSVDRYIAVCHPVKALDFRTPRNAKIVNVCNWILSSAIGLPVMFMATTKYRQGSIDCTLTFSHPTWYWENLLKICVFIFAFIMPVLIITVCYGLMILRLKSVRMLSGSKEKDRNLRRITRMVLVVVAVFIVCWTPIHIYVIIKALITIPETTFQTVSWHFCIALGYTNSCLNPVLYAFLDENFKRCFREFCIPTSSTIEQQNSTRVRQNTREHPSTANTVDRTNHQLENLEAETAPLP

Molecular target: Mu-type opioid receptor (Rattus norvegicus, UniProt P33535)
Test: Inhibition of [3H]diprenorphine binding to rat Opioid receptor mu 1 expressed in C6 cells
Assay type: cell-based
Outline: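 Competition binding with [3H]diprenorphine on rat MOR or DOR expressed in C6 cells and human KOR in CHO cells. Mean of three experiments, each in duplicate.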

With Oc1ccc2c3c1O[C@H]1c4[nH]c5c(c4C[C@@]4(O)[C@@H](C2)N(CC2CC2)CC[C@]314)C[C@@]1(O)[C@H]2Cc3ccc(O)c4c3[C@@]1(CCN2CC1CC1)[C@H]5O4 [NORBINALTORPHIMINE] the Ki was 1.2 nM.
